Laboratory results: patent publication US7501421B2, “Benzoxazole and benzothiazole derivatives as 5-hydroxytryptamine-6 ligands” (Wyeth, priority 2006, dated 2009)
Structures can show the parent of a compound that is named as a salt.

Sequences of proteins named here, by UniProt entry; tags and fusion partners are left off.
UniProt P50406, whole entry: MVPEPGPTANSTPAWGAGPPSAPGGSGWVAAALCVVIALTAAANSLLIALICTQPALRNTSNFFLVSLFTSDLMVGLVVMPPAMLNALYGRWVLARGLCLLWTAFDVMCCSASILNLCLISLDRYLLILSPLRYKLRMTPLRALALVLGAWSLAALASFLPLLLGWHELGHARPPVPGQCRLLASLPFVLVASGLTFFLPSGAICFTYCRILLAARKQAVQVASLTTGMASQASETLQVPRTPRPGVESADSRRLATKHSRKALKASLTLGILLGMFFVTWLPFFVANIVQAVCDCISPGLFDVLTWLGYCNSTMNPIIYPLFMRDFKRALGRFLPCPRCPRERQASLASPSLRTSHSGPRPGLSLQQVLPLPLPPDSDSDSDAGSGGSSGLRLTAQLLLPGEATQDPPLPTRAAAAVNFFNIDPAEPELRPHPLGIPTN

Target: human cloned 5-HT6 receptors (Homo sapiens, UniProt P50406)
Assay: Evaluation of 5-HT6 binding affinity ([3H]-LSD radioligand binding)
Settings: read-out: 5-HT6 Binding Ki; membranes of Hela cells expressing human cloned 5-HT6 receptors; [3H]-LSD 3.0 nM; 120 minutes at room temperature

Row | SMILES | Ki [nM]
1 | O=S(=O)(c1ccc(F)cc1)c1cccc2oc(N3CCNCC3)nc12 [Example 15] | 64
2 | O=S(=O)(c1cccc(F)c1)c1cccc2oc(N3CCNCC3)nc12 [Example 14] | 54
3 | COc1cccc(S(=O)(=O)c2cccc3oc(N4CCNCC4)nc23)c1 [Example 20] | 25
4 | CC(C)N1CCN(c2nc3c(S(=O)(=O)c4cccc5ccccc45)cccc3o2)CC1 [Example 25] | 13
5 | CCN1CCN(c2nc3c(S(=O)(=O)c4cccc5ccccc45)cccc3o2)CC1 [Example 23, 2-(4-Ethylpiperazin-1-yl)-4-(1-naphthylsulfonyl)benzoxazole Dihydrochloride] | 12
6 | O=S(=O)(c1cccc2ccccc12)c1cccc2oc(N3CCN(C4CCC4)CC3)nc12 [Example 29] | 72
7 | O=S(=O)(c1ccc2nc(N3CCNCC3)oc2c1)c1cccc2ccccc12 [Example 35, 6-(1-naphthylsulfonyl)-2-piperazin-1-ylbenzoxazole Dihydrochloride] | 196
8 | O=S(=O)(c1cc(Cl)ccc1Cl)c1cccc2oc(N3CCNCC3)nc12 [Example 21] | 13
9 | O=S(=O)(c1ccc(C(F)(F)F)cc1)c1cccc2oc(N3CCNCC3)nc12 [Example 19] | 33
10 | CC(C)c1ccc(S(=O)(=O)c2cccc3oc(N4CCNCC4)nc23)cc1 [Example 17] | 22
11 | CCCN1CCN(c2nc3c(S(=O)(=O)c4cccc5ccccc45)cccc3o2)CC1 [Example 24] | 36
12 | CCCCN1CCN(c2nc3c(S(=O)(=O)c4cccc5ccccc45)cccc3o2)CC1 [Example 26] | 88
13 | O=S(=O)(c1cccc(Cl)c1)c1cccc2oc(N3CCNCC3)nc12 [Example 16] | 31
14 | O=S(=O)(c1cccc2ccccc12)c1cccc2oc(N3CCNCC3)nc12 [Example 12, 4-(1-Naphthylsulfonyl)-2-piperazin-1-ylbenzoxazole Dihydrochloride] | 3.1
15 | CC(C)CN1CCN(c2nc3c(S(=O)(=O)c4cccc5ccccc45)cccc3o2)CC1 [Example 27] | 176
16 | O=S(=O)(c1ccc2oc(N3CCNCC3)nc2c1)c1cccc2ccccc12 [Example 5, 5-(1-Naphthylsulfonyl)-2-piperazin-1-ylbenzoxazole Dihydrochloride] | 52
17 | O=S(=O)(c1cccc(C(F)(F)F)c1)c1cccc2oc(N3CCNCC3)nc12 [Example 18] | 22
